Reference: patent US11312940B2, “Progenitor cells and methods for preparing and using the same” (University of Louisville Research Foundation, Inc., priority 2015, dated 2022)

Columns and labels:
BM VSELs = assay: Total number of BM VSELs by FACS after SexH administration; assay type: in vivo, mouse; conditions: 10-day administration; for increase in total number of VSELs/10^6 BMMNCs: male BM
Description: (§1) Normal 2-month-old C57BL/6 mice were exposed to daily injections of FSH (5 IU/mice/day), LH (5 IU/mice/day), PRL (1 mg/mice/1 day), danazol (4 mg/kg/day), and estrogen (20 mg/mouse/day). Hormone treatment was performed for 10 days.
(§2) The following mAbs were employed to stain Lin^−/Sca-1^+/CD45^− and Lin^−/Sca-1^+/CD45^+ cells: biotin-conjugated rat anti-mouse Ly-6A/E (Sca-1, clone E13-161.7), streptavidin-PE-Cy5 conjugate, anti-CD45-APC-Cy7 (clone 30-F11), anti-CD45R/B220-PE (clone RA3-6B2), anti-Gr-1-PE (clone RB6-8C5), anti-TCRαβ-PE (clone H57-597), anti-TCRγζ-PE (clone GL3), anti-CD11b-PE (clone M1/70), and anti-Ter-119-PE (clone TER-119). All mAbs were added at saturating concentrations, and the cells were incubated for 30 minutes on ice, washed twice, and then resuspended for sorting in cell-sorting medium containing 1× Hank's Balanced Salt Solution without phenol red (GIBCO™, a division of Thermo Fisher Scientific Inc., Waltham, Mass.), 2% heat-inactivated fetal calf serum (GIBCO™), 10 mM HEPES buffer (GIBCO™), and 30 U/mL gentamicin (GIBCO™) at a concentration of 5×10^6 cells/mL. Sca-1^+/Lin^−/CD45^− cells (VSELs) and Sca-1^+/Lin^−/CD45^+ cells (HSCs) were isolated according to the gating and sorting strategy described in Zuba-Surma & Ratajczak, 2010 and Suszynska et al, 2014b. Proliferation events in BM-derived VSEL and HSC populations were examined by BrdU incorporation followed by flow cytometry.

UCB-derived MSCs = assay: Transwell chemotactic migration assay, UCB-MSCs; assay type: cell-based, human; conditions: FSH 10 IU/mL, 48 hours
Description: The Transwell migration assay was performed as follows. UCB-derived HSPCs were rendered quiescent by incubation in RPMI medium supplemented with 0.5% BSA for 5 hours at 37° C. and then seeded at a density of 10×10^4 cells/100 μL per insert into the upper chambers of Transwell polycarbonate membrane inserts with 8-μm pore size (COSTAR™ TRANSWELL™; Corning Costar, Corning, N.Y., United States of America). The lower modified Boyden's chambers contained different concentrations of FSH (2-20 IU/mL), LH (2-20 IU/mL), prolactin (0.5-5 μg/mL), estradiol (0.1-1 μM), or progesterone (0.1-1 μM). FBS (10%) and BSA (0.5%) in RPMI 1640 medium were used as positive and negative controls, respectively. After 3 hours of stimulation at 37° C., the migrated cells were collected from the lower chambers and then scored using fluorescence-activated cell sorting (FACS) analysis. For UCB-MSC chemotaxis, cells were detached with 0.25% trypsin, starved for 24 hours, and then seeded into the upper gelatin-coated (0.5%) inserts at a density of 7×10^4 cells/insert in 100 μL. […] The cells that had migrated to the lower side of the membrane were fixed and stained with the FISHER HEALTHCARE™ PROTOCOL™ HEMA 3™ brand staining protocol (Fisher Scientific, Pittsburgh, Pa., United States of America) according to the manufacturer's instructions and then counted using an inverted microscope.

BM HSPCs = assay: Total number of BM HSPCs by FACS after SexH administration; assay type: in vivo, mouse; conditions: male and female mice, 10-day administration
Description: as §1
as §2, with “Proliferation events in BM-derived VSEL and HSC populations were examined by BrdU incorporation followed by flow cytometry.” left out

[1] = system: Sca-1+/Lin-/CD45+ cells (HSPCs); assay: In vivo BrdU incorporation into BM HSPCs; design: species or system mouse; conditions: 10-day administration
Description: as §1
(§3) The following mAbs were employed to stain Lin^−/Sca-1^+/CD45^− and Lin^−/Sca-1^+/CD45^+ cells: biotin-conjugated rat anti-mouse Ly-6A/E (Sca-1, clone E13-161.7), streptavidin-PE-Cy5 conjugate, anti-CD45-APC-Cy7 (clone 30-F11), anti-CD45R/B220-PE (clone RA3-6B2), anti-Gr-1-PE (clone RB6-8C5), anti-TCRαβ-PE (clone H57-597), anti-TCRγζ-PE (clone GL3), anti-CD11b-PE (clone M1/70), and anti-Ter-119-PE (clone TER-119). […]
(§4) Adult C57BL/6 mice (4-8 weeks old; Jackson Laboratory) were intraperitoneally (i.p.) were injected daily with 1 mg of BrdU solution to evaluate whether SexHs affect proliferation of stem cells, and the final injection of BrdU was performed 1 hour before sacrificing the animals (see Grymula et al, 2014). […] Samples were analyzed with a Navios flow cytometer (Beckman Coulter).

human MSCs = assay: Adhesion of MSCs to fibronectin; assay type: cell-based
Description: UCB-derived HSPCs and MSCs were made quiescent for 5 hours and 8 hours, respectively, with 0.5% BSA in a humidified atmosphere of 5% CO2 at 37° C. Next, cells were stimulated with FSH (10 IU/mL), LH (10 IU/mL), prolactin (2 μg/mL), estradiol (0.1 μM), or 0.5% BSA in RPMI 1640 medium for 5 minutes at 37° C. Cells were added directly onto the protein-coated wells (3×10^3 cells/well) in 96-well plates for 5 minutes. The wells were coated with fibronectin (10 μg/mL; Sigma-Aldrich, St. Louis, Mo., United States of America) overnight at 4° C. and blocked with BSA for 2 hours before starting the experiment. Following stimulation, the plates were vigorously washed 3 times, and adherent cells were counted under an inverted microscope.

HUVECs = assay: In vitro angiogenesis (tube-formation) assay; assay type: cell-based, human; conditions: FSH 10 IU/mL; Matrigel
Description: The tube-formation assay was performed on a synthetic BD MATRIGEL® brand basement membrane complex with reduced growth factors (BD MATRIGEL®; BD Bioscience, San Diego, Calif., United States of America). In brief, the BD MATRIGEL® brand basement membrane complex was thawed overnight at 4° C. Twenty-four-well plates were coated with matrix and then polymerized for 1 hour at 37° C. Afterwards, HUVECs (60,000 cells/well) were resuspended in either serum-reduced medium containing 0.5% BSA in DMEM medium (negative control), medium containing FGF2 (50 ng/mL; positive control), CM from unstimulated hUCB-MSCs, medium supplemented with FSH (10 IU/mL), or CM collected from stimulated MSCs with the same concentration of FSH. The cells were seeded on the polymerized BD MATRIGEL® brand basement membrane complex in duplicate and kept in a humidified environment of 5% CO2 at 37° C. After 2 to 4 hours, the cultures were evaluated for capillary-like tube formation, the identical fields in each well were photographed, and the formed tubes in each group were then scored.

[2] = system: Sca-1+/Lin-/CD45- cells (VSELs); assay: In vivo BrdU incorporation into BM VSELs; design: species or system mouse; conditions: 10-day administration; female and male cells
Description: as §1, §3, §4

[3] = system: hVEGF2 mRNA in UCB-derived MSCs; assay: RQ-PCR of VEGF expression in MSCs; assay type: cell-based, human; conditions: FSH 10 IU/mL, 12 and 24 hours, versus unstimulated cells
Description: To evaluate the role of FSH in the regulation of genes expressed actively in angiogenesis, MSCs were kept in culture, either unstimulated or stimulated with FSH, for 12 to 24 hours. At various time points, the cells were collected, and total RNA was extracted and purified using the RNeasy Mini kit (Qiagen Inc., Germantown, Md., United States of America) after treatment with DNase I (Qiagen Inc., Germantown, Md., United States of America). The mRNA was then reverse-transcribed into cDNA using TAQMAN® Reverse Transcription Reagents (ThermoFischer Scientific Inc., Waltham, Mass., United States of America), according to the manufacturer's instructions. Quantitative assessment of mRNA levels of target genes was performed by RQ-PCR using an APPLIED BIOSYSTEMS® PRISM® Fast 7500 sequence detection system (ThermoFischer Scientific Inc., Waltham, Mass., United States of America). […] The threshold cycle (Ct), the cycle number at which the fluorescence of the amplified gene reached a fixed threshold, was subsequently determined, and the relative quantification of the expression level of target genes was performed with the 2-ΔΔCt method.

[4] = system: murine BM-purified Sca-1+ cells; assay: Signal transduction in murine BM Sca-1+ cells; assay type: cell-based, mouse; conditions: pituitary SexHs, 5 and 10 minutes, Sca-1+ BMMNCs
Description: Cells were kept in RPMI medium containing 0.5% BSA overnight in an incubator to achieve quiescence; then stimulated with FSH (5 IU), LH (5 IU), danazol (4 mg/mL), PRL (1 mg/mL), estradiol (0.1 mM), progesterone (0.1 mM), or vehicle only (0.9% sodium chloride diluted in medium with 0.5% BSA) for 5 or 10 minutes at 37° C.; and finally lysed for 20 min on ice with RIPA Lysis Buffer System (Santa Cruz Biotechnology, Inc., Santa Cruz, Calif.) containing protease and phosphatase inhibitors (Santa Cruz Biotechnology). The concentrations of extracted proteins were measured with the BCA Protein Assay Kit, according to the manufacturer's instructions (Thermo Fisher Scientific), and equal amounts of protein were separated and analyzed for phosphorylation of MAPKp44/42 and AKT (Ser473). Loading of the lanes was evaluated by stripping the blots and reprobing with antibodies against MAPKp44/42 and AKT. All phosphospecific antibodies were purchased from Cell Signaling Technology, Inc. (Danvers, Mass.) The membranes were developed with an AMERSHAM™ ECL™ Western Blotting Detection Reagents kit and exposed to AMERSHAM™ HYPERFILM™ (GE Healthcare Life Sciences, Little Chalfont, Buckinghamshire, United Kingdom).

follicle-stimulating hormone [FSH]
increase in total number of VSELs/10^6 BMMNCs (BM VSELs): about 2.5 fold
chemoattraction (migration) of UCB-derived MSCs (UCB-derived MSCs): strongly chemoattracted
increase in BM HSPCs/10^6 BMMNCs (ranking) (BM HSPCs): highest stimulatory effect
increase in percentage of BrdU+ Sca-1+/Lin-/CD45+ cells (ranking) [1]: highest increases
adhesion of MSCs (human MSCs): slightly enhanced adhesion
tube formation by HUVECs (HUVECs): significantly enhanced
BrdU incorporation response of Sca-1+/Lin-/CD45- cells (ranking) [2]: highest response
expression of VEGF (mRNA) [3]: strongly upregulated
MAPKp42/44 phosphorylation [4]: strongest stimulation

luteinizing hormone [LH]
increase in total number of VSELs/10^6 BMMNCs (ranking) (BM VSELs; female mice): most effective
increase in total number of VSELs/10^6 BMMNCs (BM VSELs): about 2.5 fold
increase in BM HSPCs/10^6 BMMNCs (ranking) (BM HSPCs): highest stimulatory effect
increase in percentage of BrdU+ Sca-1+/Lin-/CD45+ cells (ranking) [1]: highest increases
BrdU incorporation response of Sca-1+/Lin-/CD45- cells (ranking) [2]: highest response
